Our source for the Irritancy/mildness values is patent US9902707B2, “Detergent compositions” (Innospec Limited, priority 2013, dated 2018).

For the data set, the system named is Zein. The following applies: 1% surfactant solution; qualitative comparison with commercial personal care surfactants.

As to LAUROYL THIAMINE, the Irritancy/mildness result is “milder than many commercially available personal care surfactants including Sodium Laureth Sulfate (3EO) [SLES]”.
